## Yeast mating assay B: variants of the scFv Ab-14

Target: peptide PDVDLGDISGINAS, taken from heptad repeat 2 (HR2) of SARS-CoV-2 spike.

Parent scFv Ab-14: VH joined to VL by a 15-residue (Gly4Ser)3 linker. Changes lie in the light chain CDRs alone.
VH: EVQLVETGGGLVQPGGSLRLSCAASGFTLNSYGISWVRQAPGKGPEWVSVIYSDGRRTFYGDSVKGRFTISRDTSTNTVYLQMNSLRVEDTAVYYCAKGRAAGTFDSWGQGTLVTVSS
VL: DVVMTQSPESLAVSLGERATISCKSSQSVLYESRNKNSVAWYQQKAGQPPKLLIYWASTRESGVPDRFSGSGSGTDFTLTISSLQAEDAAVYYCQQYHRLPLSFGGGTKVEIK

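The starting antibody came from a phage panning campaign against this peptide. Designed CDR sequences, proposed from the first random library and measured here. Group labels follow the data file (Ctrl: baseline library sampled from a position-specific scoring matrix, with some repeated check sequences; GP: Gaussian process model; HC: hill climbing; a sequence that several methods proposed may carry one label only). AlphaSeq pools MATa yeast showing the antibodies with MATalpha yeast showing the peptide. Mating (16 h, 30 °C) was followed by selection of diploids and sequencing of their barcodes. A regression on co-assayed BCL2-family reference pairs converts the normalised counts of each replicate to an apparent Kd. Mating was done six times.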

Positions count from residue 1 of the parent VL; Y31D puts D in place of Y. Values are log10 of the apparent Kd in nM; lower means stronger binding. A mean of the replicates is given; it leaves out those without a signal. An entry "n.d." has no value in the source: the pair was not observed among the diploids in that replicate. This suggests poor binding but is not conclusive. The authors' rule: three or more of the six replicates give a measured affinity, fewer mean a poor binder. Three control strains display no target. For all light chain designs, 4% of the pairings with them gave a signal, with a median of 2.64 and one signal in twenty below 1.59, so weak values seen in few replicates may be background. For each scFv, signals with the empty controls are counted beside the result, with their mean in brackets. Of ten entries with the parent sequence, four were seen in most replicates (averages 0.34 to 2.37), three in one and three in none, so single entries are noisy. Where one sequence has several entries in the source, the replicates are listed entry by entry, parted by semicolons. Values of this round are not directly comparable with the first-round values of the same sequences.

| changes | group | log10 Kd (nM) by replicate | mean log10 Kd (nM) | signal with controls |
|---|---|---|---|---|
| Y31D/W56S/S103G | Ctrl | 0.84 0.14 0.20 0.42 0.41 0.28 | 0.38 | 1/18 (2.86) |
| S25Y/N35F/K36F/N37P/W56T | Ctrl | 1.25 0.93 0.80 0.95 1.17 1.52 | 1.10 | 0/18 |
| E32D/S33E/R34M/W56A/A57G/R99N | Ctrl | 0.52 0.65 0.30 0.34 0.36 0.59 | 0.46 | 0/18 |
| Q27E/W56D | Ctrl+GP_HC | 0.08 0.03 -0.09 -0.19 0.03 0.10; 0.20 0.16 0.15 -0.06 0.04 0.28 | 0.06 | 5/36 (2.12) |
| K24M/S28E/R34F/Q95S | Ctrl | n.d. n.d. n.d. 1.75 n.d. n.d. | 1.75 | 1/18 (1.70) |
| K24S/W56H/Q95D | Ctrl | n.d. n.d. n.d. n.d. n.d. n.d. | n.d. | 0/18 |
| K36T/S62K | Ctrl | 2.43 2.19 1.05 2.67 3.82 1.63 | 2.30 | 0/18 |
| Q27I/R34F | Ctrl | 0.58 0.94 0.53 0.68 0.63 0.74 | 0.68 | 2/18 (2.70) |
| S25F/S26M/V29M/L30S/S33N/W56T/T59E/Y97P/R99Q | Ctrl | n.d. n.d. n.d. n.d. n.d. 2.00 | 2.00 | 0/18 |
| W56H/Q96H | Ctrl | 1.93 1.33 1.12 1.53 0.96 1.79 | 1.44 | 1/18 (2.81) |
| V29Y/L102E | Ctrl | n.d. n.d. n.d. n.d. n.d. n.d. | n.d. | 0/18 |
| Y31D/E32N/S33A/W56S/S103A | Ctrl | 0.42 0.38 0.67 0.36 0.66 0.70 | 0.53 | 1/18 (1.69) |
| K24H/S62A | Ctrl | 2.56 1.57 1.73 1.69 2.14 1.84 | 1.92 | 1/18 (1.80) |
| W56S/S62F/H98M | Ctrl | 0.03 -0.33 -0.23 0.04 -0.28 0.33 | -0.07 | 0/18 |
| S26I/W56G | Ctrl | 0.15 -0.15 -0.27 -0.14 -0.14 -0.12 | -0.11 | 0/18 |
| S26M/S33N | Ctrl | 1.76 n.d. n.d. 3.58 2.95 n.d. | 2.76 | 0/18 |
| L30F/S62D/P101T | Ctrl | n.d. n.d. n.d. n.d. n.d. n.d. | n.d. | 0/18 |
| S58V | Ctrl | n.d. n.d. n.d. n.d. n.d. n.d. | n.d. | 0/18 |
| L30F/W56N/Q95P/S103L | Ctrl | 0.86 1.06 1.71 1.02 1.06 1.21 | 1.15 | 1/18 (1.71) |
| Q27K/Y31L/R34S/W56H/H98W | Ctrl | 1.30 1.29 0.95 0.66 0.63 1.41 | 1.04 | 0/18 |
| S25V/S26D/V29F/H98S | Ctrl | 0.28 0.39 0.34 0.09 0.39 0.38 | 0.31 | 0/18 |
| K24Q/S25M/L30D/H98Y | Ctrl | 0.87 0.72 0.92 0.52 0.59 0.88 | 0.75 | 1/18 (1.54) |
| S25M/S26M/L30Y/Y31F/S62L | Ctrl | n.d. 0.99 1.61 1.61 1.87 2.08 | 1.63 | 1/18 (2.84) |
| Y31A/W56A/Q95K/H98P | Ctrl | 1.80 0.71 0.47 0.51 0.48 0.93 | 0.82 | 1/18 (2.16) |
| N35M/W56N/S62M | Ctrl | 0.40 0.31 0.21 -0.02 0.58 0.81 | 0.38 | 0/18 |
| S25L/R34N/K36S | Ctrl | 2.52 2.06 2.33 2.35 1.75 2.28 | 2.21 | 2/18 (2.04) |
| W56N/R99E | Ctrl | 1.13 1.39 1.43 1.48 1.56 1.85 | 1.47 | 1/18 (2.44) |
| R34C/S58M | Ctrl | n.d. n.d. n.d. n.d. n.d. n.d. | n.d. | 0/18 |
| Q27T/V29W/E32T/Q95N | Ctrl | n.d. n.d. n.d. n.d. n.d. n.d. | n.d. | 0/18 |
| S25V/S103L | Ctrl | 0.76 0.84 0.59 0.78 0.80 0.88 | 0.77 | 0/18 |
| Y31S/S103I | Ctrl | n.d. n.d. 2.50 2.39 n.d. 3.07 | 2.65 | 1/18 (2.70) |
| S25G/S33W/R34D/T59I/S62W | Ctrl | n.d. n.d. n.d. n.d. n.d. n.d. | n.d. | 0/18 |
| S26E/Y31I/S58D | Ctrl | 2.03 2.74 2.75 n.d. 1.87 1.80 | 2.24 | 1/18 (2.39) |
| S25L/Q27A/L30G/S33D | Ctrl | 0.39 0.39 0.13 0.40 0.23 0.70 | 0.38 | 1/18 (2.02) |
| Y31I/S62N | Ctrl | 2.22 1.60 1.67 2.34 2.21 2.57 | 2.10 | 1/18 (2.87) |
| S25M/E32Y/W56A | Ctrl | 1.40 1.45 1.34 1.45 1.70 1.11 | 1.41 | 1/18 (5.39) |
| S38N/E61I/L100M | Ctrl | n.d. n.d. n.d. n.d. 2.41 n.d. | 2.41 | 1/18 (2.33) |
| V29C/L30W/Y31T | Ctrl | n.d. n.d. n.d. 1.54 n.d. n.d. | 1.54 | 0/18 |
| S28L/V29Y/Y31I | Ctrl | n.d. n.d. n.d. n.d. 2.24 n.d. | 2.24 | 0/18 |
| S25F/S26H/Q95L/H98A/R99E | Ctrl | n.d. n.d. n.d. n.d. n.d. n.d. | n.d. | 0/18 |
| S38Q/E61S/P101T | Ctrl | n.d. 1.48 n.d. n.d. 1.48 0.86 | 1.27 | 1/18 (1.66) |
| S25M/L30Y/W56E/S103N | Ctrl | 0.95 0.94 0.89 1.21 1.59 1.14 | 1.12 | 0/18 |
| A40W | Ctrl | 0.74 0.68 0.67 0.25 0.12 0.96 | 0.57 | 2/18 (2.84) |
| V29W/S62H/S103F | Ctrl | n.d. n.d. n.d. 2.03 n.d. n.d. | 2.03 | 0/18 |
| N35A/V39I/R99H/S103C | Ctrl | n.d. n.d. n.d. 0.99 n.d. n.d. | 0.99 | 0/18 |
| R34M/N35L/Q96S/H98A/P101Q | Ctrl | n.d. n.d. n.d. n.d. n.d. n.d. | n.d. | 0/18 |
| S28A/Y31V/W56D | Ctrl | 0.17 0.22 0.04 -0.08 0.04 0.22 | 0.10 | 3/18 (2.88) |
| Q96A/L100P | Ctrl | n.d. n.d. n.d. n.d. n.d. n.d. | n.d. | 0/18 |
| Y31M/K36N/R99I | Ctrl | n.d. 2.38 2.61 n.d. n.d. n.d. | 2.50 | 1/18 (2.29) |
| Y31D/K36T | Ctrl | 1.72 1.20 1.05 0.37 0.94 1.99 | 1.21 | 0/18 |
| R60L/S62Y | Ctrl | n.d. n.d. n.d. n.d. n.d. n.d. | n.d. | 1/18 (3.42) |

The measurements come from Li et al. 2023 (doi:10.1038/s41467-023-39022-2) through the FLAb antibody collection.